For the assay, the system named is mice. Put plainly: Tail flick test in mice. Conditions: dose 1 mg/kg, % of maximum possible antinociceptive effect.

As to `CN(C)C1(c2ccccc2)CCC2(CC1)NCCc1c2[nH]c2ccc(F)cc12` (stereo not shown), the “Tail flick (mouse, i.v.) % inhibition (dose [mg/kg])” value is listed as 89% (1).

(Values after US9120797B2, “Process for preparing spirocyclic cyclohexane compounds, compositions containing such compounds and method of using such compounds” (dated 2015).)
